The values that follow come from ChEMBL document CHEMBL4371025, “Discovery and evaluation of novel FAAH inhibitors in neuropathic pain model” (Bioorg Med Chem Lett, 2019).

Protein sequences, listed by entry. Tags and fused reporters are not part of them.
UniProt O00519, whole entry: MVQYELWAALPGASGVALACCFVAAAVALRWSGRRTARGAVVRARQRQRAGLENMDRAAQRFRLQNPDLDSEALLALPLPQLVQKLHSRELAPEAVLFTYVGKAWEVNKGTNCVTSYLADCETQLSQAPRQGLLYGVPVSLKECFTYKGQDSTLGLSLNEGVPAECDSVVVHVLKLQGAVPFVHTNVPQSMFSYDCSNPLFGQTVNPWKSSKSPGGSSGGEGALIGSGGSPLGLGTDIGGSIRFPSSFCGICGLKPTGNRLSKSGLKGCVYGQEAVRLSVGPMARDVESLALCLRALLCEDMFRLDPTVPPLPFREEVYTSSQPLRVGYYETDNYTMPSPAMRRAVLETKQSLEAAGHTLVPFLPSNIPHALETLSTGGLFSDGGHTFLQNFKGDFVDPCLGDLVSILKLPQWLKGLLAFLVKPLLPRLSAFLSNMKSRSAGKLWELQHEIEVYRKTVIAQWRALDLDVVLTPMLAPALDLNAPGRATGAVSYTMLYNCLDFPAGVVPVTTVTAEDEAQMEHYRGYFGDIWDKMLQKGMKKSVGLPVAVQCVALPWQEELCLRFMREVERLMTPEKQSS

The target in assay [1] is T1, Fatty-acid amide hydrolase 1 (Homo sapiens, UniProt O00519). The experiment in a line: Reversible inhibition of human transmembrane domain deficient FFAH expressed in Escherichia coli assessed as residual activity at 10 times IC50 using AAMCA as substrate preincubated for 1 hr followed by substrate addition and subsequent 10 fold compound dilution by fluorescence assay relative to control.

Assay [2] concerns the target T1, Fatty-acid amide hydrolase 1. The assay can be described thus: Substrate activity at human transmembrane domain deficient FFAH expressed in Escherichia coli assessed as parent compound remaining at 2 times IC50 after 30 mins by MS analysis.
Assay [3] has the same target. The experiment in a line: Substrate activity at human transmembrane domain deficient FFAH expressed in Escherichia coli assessed as parent compound remaining at 2 times IC50 after 60 mins by MS analysis.
Assay [4] shares this target. The assay can be described thus: Substrate activity at human transmembrane domain deficient FFAH expressed in Escherichia coli assessed as parent compound remaining at 2 times IC50 after 15 mins by MS analysis.
Assay [5] shares this target. The experiment in a line: Substrate activity at human transmembrane domain deficient FFAH expressed in Escherichia coli assessed as parent compound remaining at 2 times IC50 measured immediately by MS analysis.

As for `O=C(NC1CCC(=Cc2cccc(Oc3ccc(C(F)(F)F)cn3)c2)CC1)c1cccnc1` (stereo not given), the Activity came out at 30% in assay [1]; 92.5% in assay [2]; 92.1% in assay [3]; 95.9% in assay [4]; 100% in assay [5].
